The values below are quoted from earlier work in paper PMC3158827 (ACS chemical biology, 2011).

The subject of one data set is trypsin. The settings on record: cited from earlier work.
A further data set concerns pepsin. The settings on record: cited from earlier work.

As to kalata B1, the “resistance to trypsin degradation” value with trypsin was “completely resistant”. The “resistance to pepsin degradation” value in the data set with pepsin is reported as “completely resistant”.
